Yeast mating assay 2: variants of the scFv Ab-95

The target is the same throughout: PDVDLGDISGINAS, from the HR2 region of SARS-CoV-2 spike.

Parent: Ab-95, a human scFv built as VH, the linker GGGGSGGGGSGGGGS, VL. Only the CDRs of the light chain vary.
VH: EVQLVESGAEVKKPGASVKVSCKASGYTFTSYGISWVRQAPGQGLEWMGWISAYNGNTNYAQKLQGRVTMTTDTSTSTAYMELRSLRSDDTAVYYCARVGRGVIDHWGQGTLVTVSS
VL: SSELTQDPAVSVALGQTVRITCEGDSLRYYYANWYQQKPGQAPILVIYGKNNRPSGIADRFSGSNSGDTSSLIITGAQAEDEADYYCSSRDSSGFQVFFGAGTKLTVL

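The parent was found by panning a naive human phage display library on the peptide. AAYL52 was designed without a model: most single CDR substitutions and a random sample of double and triple ones. The scFvs were displayed on barcoded MATa yeast, the peptide on MATalpha yeast. After mating in shaken culture at 30 °C for 16 h, diploids were selected and their barcode pairs sequenced. A regression on co-assayed BCL2-family reference pairs converts the normalised counts of each replicate to an apparent Kd. The assay was run in three technical replicates.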

The whole VL of each variant is written out.
Affinities are written as log10 Kd with Kd in nM; a lower number is a better binder.
The mean shown is taken over the replicates in which the pair was detected.
"n.d." means that the variant was in the library but no mating with the target was seen in that replicate; the authors take this as a sign of poor binding, and no number exists.
As a blank, each scFv also met three strains without target: over library AAYL52, 28% of these pairings were detected, typically at 3.91 and seldom below 2.90. The control count says in how many pairings with the empty strains this scFv gave a signal, with their mean in brackets.

VL | replicates, log10 nM | mean, log10 nM | control signals
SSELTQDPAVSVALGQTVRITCEGDYLRCYYANWYQQKPGQAPILVIYGKHNRPSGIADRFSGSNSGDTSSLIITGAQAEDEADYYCSSRDSSGFQVFFGAGTKLTVL | 1.91 / 1.45 / 1.81 | 1.72 | 2/9 (3.49)
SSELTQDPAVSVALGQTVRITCEKHSLRYYYANWYQQKPGQAPILVIYGKNNRPSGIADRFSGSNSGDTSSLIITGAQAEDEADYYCSSRVSSGFQVFFGAGTKLTVL | n.d. / n.d. / n.d. | n.d. | 0/9
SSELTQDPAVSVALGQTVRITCFGDSLRYTYANWYQQKPGQAPILVIYGTNNRPSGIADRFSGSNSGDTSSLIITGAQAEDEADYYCSSRDSSGFQVFFGAGTKLTVL | 1.59 / 1.38 / 1.06 | 1.34 | 2/9 (3.22)
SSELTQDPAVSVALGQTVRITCEGESLRYYYANWYQQKPGQAPILVIYGKNNGPSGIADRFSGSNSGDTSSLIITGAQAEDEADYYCSSRDSSGFVVFFGAGTKLTVL | n.d. / n.d. / 3.86 | 3.86 | 2/9 (4.58)
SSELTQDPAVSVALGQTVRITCFGDSNRYYYANWYQQKPGQAPILVIYGKNNRPSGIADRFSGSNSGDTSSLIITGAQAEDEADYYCSSRDSSGFQNFFGAGTKLTVL | 4.04 / 3.33 / n.d. | 3.68 | 0/9
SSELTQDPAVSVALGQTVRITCEGDSLRYYYANWYQQKPGQAPILVIYGKNDRPSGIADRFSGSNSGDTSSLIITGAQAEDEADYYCSSRDSSGFDVAFGAGTKLTVL | 2.38 / 2.34 / 2.18 | 2.30 | 4/9 (3.78)
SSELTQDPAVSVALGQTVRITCEGDSLRYYQANWYQQKPGQAPILVIYGKGNRPSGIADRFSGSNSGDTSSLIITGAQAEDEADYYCSSRDSSVFQVFFGAGTKLTVL | 1.80 / 1.74 / 1.31 | 1.62 | 3/9 (4.18)
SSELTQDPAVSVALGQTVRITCEGDSLRYYYANWYQQKPGQAPILVIYGKNNRPSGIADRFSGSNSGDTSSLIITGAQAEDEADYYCSSTWSSGDQVFFGAGTKLTVL | 3.57 / n.d. / 3.44 | 3.50 | 4/9 (3.13)
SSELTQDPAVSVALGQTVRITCEGDSLRYYYANWYQQKPGQAPILVIYGKNSRPSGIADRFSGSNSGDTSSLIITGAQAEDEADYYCSSRVSSRFQVFFGAGTKLTVL | 2.86 / 3.09 / 2.54 | 2.83 | 3/9 (3.71)
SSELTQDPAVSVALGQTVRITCEGDSLRFYYANWYQQKPGQAPILVIYGKNNRPSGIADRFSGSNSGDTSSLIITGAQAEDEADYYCYERDSSGFQVFFGAGTKLTVL | 3.64 / n.d. / 2.80 | 3.22 | 0/9
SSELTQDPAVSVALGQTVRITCVGDSLRYYYANWYQQKPGQAPILVIYGKQNRPSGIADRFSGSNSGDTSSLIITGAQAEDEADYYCSSRDSSGFQAFFGAGTKLTVL | 2.36 / n.d. / n.d. | 2.36 | 0/9
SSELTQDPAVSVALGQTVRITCEGDSLRYYYWNWYQQKPGQAPILVIYGKANRPSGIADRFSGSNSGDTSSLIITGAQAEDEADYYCSSRDSSGFTVFFGAGTKLTVL | 4.79 / n.d. / n.d. | 4.79 | 2/9 (4.65)
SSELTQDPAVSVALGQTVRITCEGDSLRYYYANWYQQKPGQAPILVIYGKNNRPSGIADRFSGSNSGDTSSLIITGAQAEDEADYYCVSRTSPGFQVFFGAGTKLTVL | 3.72 / 2.77 / 3.80 | 3.43 | 4/9 (4.46)
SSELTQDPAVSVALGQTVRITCEGDSLRYYYAPWYQQKPGQAPILVIYGKNNRPIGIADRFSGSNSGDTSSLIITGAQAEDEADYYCSSRDSSGFQVTFGAGTKLTVL | 3.69 / 5.19 / n.d. | 4.44 | 2/9 (4.76)
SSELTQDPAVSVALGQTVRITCEGDSLRFYYANWYQQKPGQAPILVIYGKNNRPSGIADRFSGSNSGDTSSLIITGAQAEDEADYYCSSRDSSGAQVFFGAGTKLTVL | 2.52 / 2.48 / 2.56 | 2.52 | 1/9 (3.02)
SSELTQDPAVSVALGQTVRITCEGDSLRYYVANWYQQKPGQAPILVIYGKNNRGWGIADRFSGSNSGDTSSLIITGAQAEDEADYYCSSRDSSGFQVFFGAGTKLTVL | 4.03 / 3.06 / 3.44 | 3.51 | 1/9 (3.14)
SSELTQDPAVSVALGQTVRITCEEESLRYYYANWYQQKPGQAPILVIYGKNNRPSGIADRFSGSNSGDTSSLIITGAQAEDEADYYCSSIDSSGFQVFFGAGTKLTVL | 4.57 / n.d. / n.d. | 4.57 | 1/9 (3.95)

Top 2 of the variants detected in all replicates, tightest first:

VL,"replicates, log10 nM","mean, log10 nM",control signals
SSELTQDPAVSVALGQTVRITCFGDSLRYTYANWYQQKPGQAPILVIYGTNNRPSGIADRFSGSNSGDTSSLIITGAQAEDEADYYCSSRDSSGFQVFFGAGTKLTVL,1.59 / 1.38 / 1.06,1.34,2/9 (3.22)
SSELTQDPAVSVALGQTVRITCEGDSLRYYQANWYQQKPGQAPILVIYGKGNRPSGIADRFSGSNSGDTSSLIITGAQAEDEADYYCSSRDSSVFQVFFGAGTKLTVL,1.80 / 1.74 / 1.31,1.62,3/9 (4.18)

Source: Engelhart et al. 2022 (doi:10.1038/s41597-022-01779-4), MIT Lincoln Laboratory and A-Alpha Bio; data file from the FLAb repository.